Test results reported in patent US20120252119A1, “METHODS FOR THE COLLECTION AND MATURATION OF OOCYTES” (priority 2009, published 2012).

Tests used:
bovine oocytes = test: Oocyte nuclear morphology assessment (GV configuration, GVBD, meiotic progression); assay type: cell-based; settings: FSH in IVM media with cilostamide, FIG. 8B
Experimental: At the end of the incubation, COCs were denuded and oocytes were fixed for 30 min in 4% paraformaldehyde in PBS (pH 7.4). Oocytes were then permeabilized in 0.1% Triton X-100 in 0.1% sodium citrate for 1 hour, then transferred to 0.001% 4′,6-diamidino-2-phenylindole (DAPI), a fluorescence stain for nuclear material, for 15 min. Oocytes were rinsed 3 times in PBS+0.03% BSA, mounted on slides and evaluated for nuclear status at 400× using an Olympus fluorescence microscope. Stages of germinal vesicle (GV) and subsequent meiotic development were assessed based on known techniques (Chohan and Hunter, 2003, Anim. Reprod. Sci. 76: 43-51). […]
Bovine COCs were incubated for 2 hours in the pre-IVM phase media as hereinbefore described, followed by 7 hours culture in the presence of FSH, and in the presence or absence of cilostamide (20 μM). Oocytes were then fixed and assessed for meiotic progression and classified as GV (germinal vesical intact—still under meiotic arrest) or GVBD (germinal vesical breakdown—resumption of meiosis). […] The presence of letters (a or b) above each column indicate a statistical difference between the means as determined by ANOVA analysis followed by Bonferronni's post hoc test, P<0.05. […]

[1] = test system: oocyte-cumulus cell gap junctional communication; test: Oocyte-cumulus cell gap junctional communication assay (calcein transfer); assay type: cell-based, bovine; settings: after 3 hours of IVM culture post pre-IVM phase, FIG. 7
Experimental: Cumulus-oocyte gap junctional communication (GJC) was measured by quantitative fluorescence microscopy of calcein transfer to the oocyte as described previously (Thomas et al., 2004, In “Biol. Reprod.”, pp 1142-1149). GJC was measured either after 2 hours of pre-IVM phase or followed by an additional 3 hours of IVM with or without cilostamide (20 μM). A mean number of 10-12 oocytes were used in each treatment group in each of four replicate experiments. After culture, COCs were transferred to a solution of 1 μM calcein-AM (3′,6′-di(O-acetyl)-2′,7′-bis[N,N-bis(carboxymethyl)amino methyl]-fluorescein, tetraacetoxy methyl ester; C-3100; Molecular Probes; Eugene, Oreg., USA) freshly prepared in a BSA-free Bovine VitroCollect (Cook Australia) supplemented with polyvinyl alcohol (PVA; 0.3 mg/ml). […] Prior to fluorescence microphotometry, COCs were completely denuded of their surrounding cumulus cells using vigorous pipetting so that only dye confined within the denuded oocyte after transport via gap junctions was measured. Within 30 minutes of denuding, the intra-oocyte fluorescence emission of calcein in oocytes was measured using a fluorophotometric-inverted microscope (Leica, Wetzlar, Germany). […]

[2] = test system: cAMP concentrations in mouse cumulus-oocyte complexes (COCs); test: In vivo cAMP concentrations in mouse COCs after eCG and hCG; settings: following the hCG treatment, FIG. 14A
Experimental: The data represents the mean cAMP level per COC±SEM of 4 replicates. Each measurement was conducted on 12 COCs.

| Substance | effect on cilostamide delay of progression to M II (bovine oocytes) | levels of gap junctional communication [1] | cAMP concentration in in vivo matured oocytes [2] |
| --- | --- | --- | --- |
| FSH: follicle stimulating hormone (Puregon, Organon) | overridden | had no effect in maintaining the level of gap junctional communication |  |
| hCG: human chorionic gonadotropin, induces oocyte maturation in vivo |  |  | significant increase in cAMP concentration |
